One molecule from paper PMC3503517 (Chembiochem : a European journal of chemical biology, 2011) can be followed below.

This experiment addresses T1, human DCTPP1 (Homo sapiens, UniProt Q9H773).
T1 sequence (Q9H773 1-170): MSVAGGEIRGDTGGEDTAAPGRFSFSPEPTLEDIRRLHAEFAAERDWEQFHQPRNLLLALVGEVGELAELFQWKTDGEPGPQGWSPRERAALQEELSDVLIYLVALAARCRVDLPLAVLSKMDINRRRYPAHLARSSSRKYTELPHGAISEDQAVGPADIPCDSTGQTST
The format is biochemical. As to conditions: read-out: Ki ± SE.

`CC(C)[C@]12O[C@H]1[C@@H]1O[C@]13[C@]1(O[C@H]1CC1C4=C(CC[C@@]13C)C(=O)OC4)[C@H]2O` (stereo partly drawn) [compound 7, 14-α-triptolide]: the Ki (usually a dissociation constant, usually derived from enzyme kinetics or from competition with a known ligand) came to 194 ± 28 µM.
